According to ChEMBL document CHEMBL3301361, “Experimental in vitro DMPK and physicochemical data on a set of publicly disclosed compounds”:

Assays:
in vitro [1] = details: human, hepatocytes
in vitro [2] = details: human, plasma

Structure (SMILES) | fraction unbound at 5 h (in vitro [2]; PPB) | other results
COc1cc(-n2cnc3cc(-c4ccc(Cl)cc4)sc3c2=O)ccc1OC[C@H](O)C1CC1 | – | hepatocyte CLint (in vitro [1]): 22.9 µL/min/1e6 cells
COc1cc2nccc(Oc3ccc(NC(=O)C4(C(=O)Nc5ccc(F)cc5)CC4)cc3)c2cc1OC [CABOZANTINIB] | – | hepatocyte CLint (in vitro [1]): 6.76 µL/min/1e6 cells
CCNC(=O)C[C@@H]1N=C(c2ccc(Cl)cc2)c2cc(OC)ccc2-n2c(C)nnc21 [MOLIBRESIB] | – | hepatocyte CLint (in vitro [1]): < 3 µL/min/1e6 cells
Cc1noc(C)c1-c1ccc(CNS(=O)(=O)c2c(C)noc2C)cc1 | – | hepatocyte CLint (in vitro [1]): 19.1 µL/min/1e6 cells
Cc1ccc(C(=O)c2ccc(CC(=O)O)n2C)cc1 [TOLMETIN] | – | hepatocyte CLint (in vitro [1]): 9.12 µL/min/1e6 cells
O=C(Nc1cc(-c2ccnc(Nc3ccc(F)cc3)c2)ccn1)C1CCOCC1 | – | hepatocyte CLint (in vitro [1]): 14.8 µL/min/1e6 cells
CN(C)S(=O)(=O)NC(=O)CCCc1c(-c2ccc(F)cc2)[nH]c2ccc(C#N)cc12 | – | hepatocyte CLint (in vitro [1]): 44 µL/min/1e6 cells
Cc1nc(-c2ccc(OCC(C)C)c(C#N)c2)sc1C(=O)O [FEBUXOSTAT] | – | hepatocyte CLint (in vitro [1]): 7 µL/min/1e6 cells
Cc1ccc(-c2cc(-c3ccccc3)nn2-c2ccc(S(N)(=O)=O)cc2)cc1 | – | hepatocyte CLint (in vitro [1]): 13.5 µL/min/1e6 cells
COc1ccnc(CCc2nc3c(C)ccnc3[nH]2)c1 | – | hepatocyte CLint (in vitro [1]): < 3 µL/min/1e6 cells
CC(NC(C)(C)C)C(=O)c1cccc(Cl)c1 (centres undefined) [BUPROPION] | – | hepatocyte CLint (in vitro [1]): 17 µL/min/1e6 cells
N#CC1(NC(=O)[C@@H]2CCCC[C@H]2C(=O)N2CCN(c3nc4ccncc4s3)CC2)CC1 | – | hepatocyte CLint (in vitro [1]): 4.9 µL/min/1e6 cells
CCCSc1ccc2nc(NC(=O)OC)[nH]c2c1 [ALBENDAZOLE] | – | hepatocyte CLint (in vitro [1]): 12.6 µL/min/1e6 cells
Cc1cn([C@H]2CCCN(S(=O)(=O)c3ccc(CO)c(Oc4cccc(Cl)c4)c3)C2)c(=O)[nH]c1=O | 0.0736 | –
COc1cc(C(C)C)c(Oc2cnc(N)nc2N)cc1I | 0.0467 | –
Cc1cc(C)cc(C(=O)Nc2ccc(Cl)c(C(=O)Nc3cncs3)c2)c1 | 0.004 | –
CCC(CC)NC(=O)c1cnn(-c2ccccc2)c1NS(=O)(=O)c1ccc(C)cc1 | 0.0139 | –
CCC(CC)[C@@H](CO)NS(=O)(=O)c1ccc(Cl)s1 [GSI-136] | 0.0784 | –
COc1ccc(-c2nc(-c3ccccn3)no2)cc1 | 0.024 | –
CN1CCCCC1CCN1c2ccccc2Sc2ccc([S+](C)[O-])cc21 (centres undefined) [MESORIDAZINE] | 0.0768 | –
Cc1ccc(S(=O)(=O)Nc2c(C(=O)N[C@@H](C)C(C)(C)C)c(C)nn2C2CCS(=O)(=O)CC2)cc1 | 0.208 | –
COc1cc(O)c(S(=O)(=O)N2c3ccccc3CCC2C)cc1NC(=O)CCC(=O)O (centres undefined) | 0.0437 | –
CC(C)C[C@H](CO)Nc1nc(SCc2ccccc2)nc2[nH]c(=O)sc12 | 0.002 | –

Structure (SMILES) | fraction unbound at 5 h (in vitro [2]; PPB) | other results
CC(=O)c1ccc2c(c1)N(CCN1CCC(NCc3ccc4c(n3)NC(=O)CO4)CC1)C(=O)CO2 | – | fraction unbound at 5 h (in vitro [2]): 0.119
CS(=O)(=O)c1ccccc1C(=O)NC[C@@H](O)CN1CCC(Oc2ccc(Cl)c(Cl)c2)CC1 | 0.0872 | –
O=C(CN1CCCCCC1)N1c2ccccc2Sc2ccccc21 | 0.0293 | –
CC(=O)N(C)c1ccc(Nc2ncc3cc(-c4ccncc4)ccc3n2)cc1 | 0.0191 | –
Cc1nc(-c2c(F)cc(Cl)cc2-c2cnc([C@@H](C)NC(=O)[C@@](C)(O)C(F)(F)F)c(F)c2)no1 | 0.02 | –
C[C@H]1CN=C(N)c2sccc2O1 | 0.489 | –
CCS(=O)(=O)c1ccc(-c2cc(Cl)ccc2OCC(=O)O)c(C)c1 | 0.0029 | –
CN(C)CCN(Cc1cccc2ccccc12)c1cc(N2CCOCC2)nc(=O)[nH]1 | 0.339 | –
CS(=O)(=O)c1ccc(-c2cc(C(F)(F)F)ccc2OCC(=O)O)cc1 | 0.0676 | –
O=C1NC(c2ccc(Br)cc2)Nc2ccccc21 (centres undefined) | 0.051 | –
CC(C)Cn1cnc2c(N)nc3ccccc3c21 [IMIQUIMOD] | 0.148 | –
O=C(NC[C@@H](O)CN1CCC(Oc2ccc(Cl)c(Cl)c2)CC1)c1c[nH]c2ccccc12 | 0.0191 | –
O=C(c1ccc(-c2ccc(Cl)cc2)o1)N(Cc1ccccn1)c1ccc(N2CCNCC2)cc1 | 0.0268 | –
Cc1nn(C)c(C)c1-c1ccc(-c2nc3ccncc3c(O)c2C#N)cc1 | 0.0036 | –
Cc1ccc2c(OCCN3CCC(Cc4cccc(NS(C)(=O)=O)c4)CC3)cccc2n1 | 0.03 | –
CC(C)C[C@H](CO)Nc1nc(SCc2ccccc2)nc2nc(N)sc12 | 0.0044 | –
Nc1nc(-c2ccccn2)nc(N)c1Cc1ccc(Cl)cc1Cl | 0.0139 | –
N#Cc1ccc(C(=O)Nc2ccc(-n3ccnc3)nc2)cc1 | 0.289 | –
NC(=O)c1cnc2[nH]c(-c3ccc(OCCN4CCCCC4)cc3)nc2c1NCCCNC(=O)C1CCC1 | 0.216 | –
COc1ccc(Oc2cccc(CN3CCCC(n4cc(C)c(=O)[nH]c4=O)C3)c2)cc1 (centres undefined) | 0.0179 | –
Cc1ccc2c(c1)c(-c1ccnc3cc(C(F)(F)F)ccc13)c(C)n2CC(=O)O | 0.0036 | –
CS(=O)(=O)c1ccc(-c2ccc3c(Nc4ccc(F)cc4)c(C(N)=O)cnc3c2)cc1 | 0.013 | –
O=S(=O)(Nc1ccc2sc(CO)nc2c1)c1ccc(Br)cc1 | 0.0069 | –

Structure (SMILES) | fraction unbound at 5 h (in vitro [2]; PPB) | other results
Cc1nc2ccc(NS(=O)(=O)c3ccc(C)c(C)c3)cc2s1 | 0.001 | –
CCOC(=O)C1=C(C)NC2=C(C(=O)CC(C)(C)C2)C1c1ccc(-c2ccccc2)cc1 (centres undefined) | 0.0017 | –
CC(C)(C)NS(=O)(=O)c1cncc(-c2ccc3nc(NC(=O)NCC(=O)N4CCOCC4)nn3c2)c1 | 0.46 | –
CC(C)N(CCCNC(=O)OCc1ccccc1)C[C@H]1O[C@@H](n2cnc3c(N)ncnc32)[C@H](O)[C@@H]1O | 0.339 | –
COc1ccc(-c2cc3c(N[C@H]4CCCNC4)ncc(C(N)=O)c3s2)cc1 | 0.0661 | –
CCCN(c1cncnc1)P(=O)(c1ccccc1)c1ccccc1 | – | fraction unbound at 5 h (in vitro [2]): 0.119
Cc1cc(F)ccc1Oc1cccc2c(=O)cc(N3CCOCC3)[nH]c12 | 0.0119 | –
COc1cc2nc(-c3ccc(N4CCN(C)CC4)cc3)nc(NCCN3CCOCC3)c2cc1OC | 0.448 | –
O=C(CCS(=O)(=O)c1ccc(Br)cc1)NCc1cccs1 | 0.0854 | –
O=C(CCCN1CCC(O)(c2ccc(Cl)cc2)CC1)c1ccc(F)cc1 [HALOPERIDOL] | 0.145 | –
Cc1c(CC(=O)O)c2cc(F)ccc2n1S(=O)(=O)c1ccc(S(C)(=O)=O)cc1 | 0.0768 | –
C[C@H](CO)Nc1[nH]c(SCc2ccccc2F)nc2nc(=O)sc1-2 | 0.0014 | –
CC(=O)Nc1ccc(CNc2[nH]nc3ccnc(Oc4ccccc4)c23)cc1 | 0.101 | –
Cc1cc(F)ccc1-n1nc(C(F)(F)F)cc1-c1ccc2c(c1)NC(=O)CO2 | 0.262 | –
O=C1COc2ccc(CNC3CCN(CCN4C(=O)COc5ccc(O)cc54)CC3)nc2N1 | – | fraction unbound at 5 h (in vitro [2]): 0.134
Cc1ccc2c(c1)c(-c1ccnc3c(Cl)cccc13)c(C)n2CC(=O)O | 0.0056 | –
CCCCc1nc2c(N)nc3ccccc3c2n1Cc1ccccc1 | 0.0171 | –
COc1cc2c(Nc3ccc(F)c(Cl)c3)c(C(N)=O)cnc2cc1OCCN(C)CCO | 0.329 | –
CNC(=O)Nc1nc2ccc(-c3cncc(S(=O)(=O)NC(C)(C)C)c3)cn2n1 | 0.355 | –
CCNC(=O)c1cc2c(-n3ccc(C(F)(F)F)n3)c(-c3cncc(C#N)c3)cnc2[nH]1 | 0.089 | –
COc1cccc2c1CCC21NCc2ccccc21 (centres undefined) | 0.208 | –
Cc1c(Sc2ccc(Cl)cc2)c2c(-c3ccccc3)cccc2n1CC(=O)O | 0.0032 | –
CN(C(=O)Cc1ccc(S(C)(=O)=O)cc1)C1CCN(Cc2ccc(C(F)(F)F)cc2)CC1 | 0.19 | –
